The text below walks through data of patent US20260265280A1, “Prevention/Treatment of Ischemic Reperfusion Injury” (Rev Therapeutics, priority 2023, published 2026).

A short description of this data set: Thermodynamic solubility assay (shake flask, HPLC-UV) in PBS. Type of data set: physicochemical. Particulars: PBS pH 7.4, shaken 24 hr at room temperature (25±2° C.). The procedure:
Solubility Study: The thermodynamic solubility assay employed was the shake flask method followed by HPLC analysis. The method prepared a saturated solution of the compound, followed by an assay of the solution using HPLC and UV detection. […] About 18 mg compound powder was weighed and placed in a 2 mL glass vial, then PBS buffer was introduced into the vial to obtain a 30-60 mg/mL target concentration. This solution was vortexed for 2 minutes. The solutions were incubated and shook on an orbital shaker for 24 hr at room temperature (25±2° C.). About 500 μL solubility solution was transferred into a new MultiScreen filter plate (Membrane of polycarbonate), filtered by millipore vacuum manifold, and collected in the filtrate as the TS solution. The filtrate was diluted with PBS buffer by a factor of 20 fold to make it diluent. Three UV standard solutions (20, 200, 2000 μg/mL) were injected into HPLC from low to high concentration, followed by testing of the diluent. Testing samples were injected in duplicate. The filtrate was analyzed by HPLC equipped with UV, and the solubility was calculated based on acquired peak areas and dilution factors with a standard external method.

Consider “[4-[[9-[(3S)-Tetrahydro furan-3-yl]-8-(2,4,6-trifluoroanilino)purin-2-yl]amino]cyclohexyl] disodium phosphate [Compound Q7]”, for which the “Thermodynamic Solubility in PBS” value came out at 29.99 mg/mL.
